# Antibody variant affinities, Ab-14 heavy chain, assay B

Target: peptide PDVDLGDISGINAS, taken from heptad repeat 2 (HR2) of SARS-CoV-2 spike.

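The parent was found by panning a naive human phage display library on the peptide. Designed CDR sequences, proposed from the first random library and measured here. Their group label is 14H_En_Gen (En: ensemble of fine-tuned language models; Gen: genetic algorithm). Affinity was read by AlphaSeq, a pooled yeast mating assay with surface-displayed partners. The frequency of each diploid, read from paired DNA barcodes, reflects how well the two displayed proteins bind. Each replicate has its own calibration line, from reference interactions of the BCL2 family. The assay was run in six technical replicates.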

Parent: Ab-14, a human scFv built as VH, three GGGGS repeats, VL. Only the CDRs of the heavy chain vary.
VH: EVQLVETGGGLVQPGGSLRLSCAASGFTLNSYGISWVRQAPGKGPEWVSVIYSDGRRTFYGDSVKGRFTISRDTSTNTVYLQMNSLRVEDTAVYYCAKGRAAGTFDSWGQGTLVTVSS
VL: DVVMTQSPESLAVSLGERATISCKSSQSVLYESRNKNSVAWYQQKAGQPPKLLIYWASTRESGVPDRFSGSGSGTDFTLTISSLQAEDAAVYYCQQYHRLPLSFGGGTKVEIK

The parent's heavy chain CDRs are GFTLNSYGIS, VIYSDGRRTFYGDSVK, GRAAGTFDS; each variant's own CDRs replace them letter for letter. Numbers give log10(Kd / nM), so 0 is 1 nM and 3 is 1 µM. Smaller is tighter. A pair that was not seen in that replicate is written "ND"; this usually means weak binding, but a binder can also be missed. A sequence measured in both rounds can read differently, since the two assays cover different ranges. The authors' rule: three or more of the six replicates give a measured affinity, fewer mean a poor binder. Empty control strains, which show no peptide, gave a signal in 1% of pairings with all heavy chain designs; the median was 2.08 and 95% of these signals were weaker than 0.84. No background was subtracted. Also given: how often the same scFv was detected with the empty control strains, with their mean in brackets.

| # | CDR-H1 | CDR-H2 | CDR-H3 | replicates, log10 nM | empty controls |
|---|---|---|---|---|---|
| 1 | GFDLNEYGIS | VIYADGSRTAYADSVK | GENAGTFDM | 0.55 / 0.93 / -0.44 / -0.11 / -0.59 / 0.61 | 0 of 18 |
| 2 | GFDLDEYGIS | VIYADGKRTAYSDSVK | GGNAGTFDL | -0.42 / -0.67 / -0.50 / -0.76 / -0.63 / -0.45 | 0 of 18 |
| 3 | GFDLNEYGIS | VIYADGRRTAYSDSVK | GNQAGTFDL | 0.09 / 0.29 / 0.02 / -0.09 / -0.07 / 0.03 | 1 of 18 (1.84) |
| 4 | GFDLNEYGIS | VIYADGVRTYYADSVK | GETAGTFDV | 0.14 / -0.05 / 0.07 / -0.62 / -0.22 / -0.17 | 0 of 18 |
| 5 | GFDLEEYGIS | VIYADGRRTAYADSVK | GQNAGTFDV | -0.09 / -0.36 / -0.41 / -0.24 / -0.25 / -0.06 | 0 of 18 |
| 6 | GFDLNEYGIS | VIYADGMRTVYADSVK | GQTAGTFDV | 1.41 / 0.18 / 0.06 / -0.11 / -0.38 / 0.09 | 0 of 18 |
| 7 | GFDLNEYGIS | VIYADGMRTAYIDSVK | GQVAGTFDV | -0.48 / -0.60 / -0.40 / -0.71 / -0.49 / -0.54 | 0 of 18 |
| 8 | GFDLNEYGIS | VIYADGQRTAYADSVK | GNVAGTFDF | -0.78 / -0.62 / -0.96 / -1.02 / -0.99 / -0.72 | 0 of 18 |
| 9 | GFDLNEYGIS | VIYADGRRTAYADDVK | GNQAGTFDV | 0.28 / -0.26 / -0.34 / -0.59 / -0.56 / -0.26 | 0 of 18 |
| 10 | GFDLNEYGIS | VIYADGMRTVYADSVK | GTNAGTFDI | 0.13 / 0.51 / -0.36 / -1.03 / -1.05 / -0.46 | 0 of 18 |
| 11 | GFDLNEYGIS | VIYADGLRTAYADSVK | GENAGTFDM | 0.33 / 0.60 / 0.53 / 0.82 / 0.71 / 0.61 | 0 of 18 |
| 12 | GFDLNEYGIS | VIYADGKRTFYADSVK | GNVAGTFDT | -0.20 / -0.80 / -0.88 / -0.76 / -0.61 / -0.61 | 0 of 18 |
| 13 | GFDLDEYGIS | VIYADGKRTAYVDSVK | GNVAGTFDQ | -0.92 / -1.19 / -1.46 / -0.72 / 0.76 / -0.23 | 0 of 18 |
| 14 | GFDLNEYGIS | VIYADGKRTFYSDSVK | GNQAGTFDV | 0.37 / 0.30 / 0.23 / 0.51 / 0.21 / 0.38 | 0 of 18 |
| 15 | GFDLNEYGIS | VIYADGQRTAYADSVK | GNVAGTFDA | -0.86 / -1.04 / -0.47 / -0.45 / -0.88 / -0.82 | 0 of 18 |
| 16 | GFDLNEYGIS | VIYADGMRTFYADNVK | GENAGTFDI | -1.14 / -0.80 / -0.96 / 1.22 / -1.31 / -0.56 | 0 of 18 |
| 17 | GFDLDEYGIS | VIYADGQRTAYADNVK | GNVAGTFDV | -0.18 / 0.00 / -0.37 / 0.04 / -0.18 / -0.18 | 0 of 18 |
| 18 | GFDLDEYGIS | VIYADGVRTAYADSVK | GNVAGTFDI | -0.28 / 0.19 / -0.17 / -0.35 / 0.04 / -0.27 | 0 of 18 |
| 19 | GFDLNEYGIS | VIYADGQRTAYSDSVK | GENAGTFDT | 0.69 / -0.20 / -0.32 / -0.75 / 0.09 / 0.55 | 0 of 18 |
| 20 | GFDLNEYGIS | VIYADGMRTQYADSVK | GTNAGTFDV | 0.25 / -0.43 / -0.78 / 0.26 / -0.31 / 0.23 | 0 of 18 |
| 21 | GFDLNEYGIS | VIYADGSRTAYADSVK | GEVAGTFDI | -0.61 / -1.22 / -1.29 / -0.41 / -0.84 / -0.76 | 0 of 18 |
| 22 | GFDLNEYGIS | VIYADGMRTAYSDSVK | GETAGTFDL | -0.78 / -0.01 / 1.17 / -1.34 / -0.66 / 0.01 | 0 of 18 |
| 23 | GFDLNEYGIS | VIYADGRRTAYIDSVK | GEVAGTFDV | 0.16 / -0.03 / -0.12 / 0.35 / 0.57 / 0.18 | 0 of 18 |
| 24 | GFDLNEYGIS | VIYADGQRTAYSDSVK | GNQAGTFDI | -0.10 / -0.23 / -0.38 / -0.38 / -0.20 / -0.07 | 0 of 18 |
| 25 | GFDLNEYGIS | VIYADGMRKAYADSVK | GETAGTFDV | -0.42 / -0.65 / -0.82 / -0.97 / -0.83 / -0.50 | 0 of 18 |
| 26 | GFDLNEYGIS | VIYADGSRTAYADSVK | GNNAGTFDL | -0.20 / -0.35 / -0.32 / -0.30 / -0.38 / 0.07 | 0 of 18 |
| 27 | GFDLNEYGIS | VIYADGSRTAYADSVK | GNVAGTFDM | -0.08 / 0.04 / -1.08 / -0.63 / -0.58 / -0.25 | 0 of 18 |
| 28 | GFDLNEYGIS | VIYADGKRSAYADSVK | GEVAGTFDV | -0.51 / -0.63 / -0.54 / -0.80 / -0.25 / -0.51 | 0 of 18 |
| 29 | GFDLNEYGIS | VIYADGQRTAYADSVK | GETAGTFDQ | -0.40 / -0.27 / -0.31 / -1.09 / -0.36 / -1.10 | 0 of 18 |
| 30 | GFDLNEYGIS | VIYADGRRTAYTDSVK | GNVAGTFDI | -0.19 / -0.65 / -0.43 / -1.02 / -0.51 / -0.33 | 0 of 18 |
| 31 | GFDLDEYGIS | VIYADGQRTAYADSVK | GNTAGTFDT | -0.61 / -0.55 / -0.56 / -0.61 / -0.51 / -0.21 | 0 of 18 |
| 32 | GFDLNEYGIS | VIYADGMRQAYADSVK | GNNAGTFDV | 0.23 / -0.08 / -0.36 / -0.37 / -0.24 / 0.42 | 0 of 18 |
| 33 | GFDLDEYGIS | VIYADGMRTVYADSVK | GNQAGTFDL | -0.49 / -0.63 / -0.66 / -0.72 / -0.88 / -0.70 | 0 of 18 |
| 34 | GFDLNEYGIS | VIYADGMRTQYADDVK | GNVAGTFDV | -0.42 / 0.08 / -0.70 / ND / -0.52 / -0.95 | 0 of 18 |
| 35 | GFDLNEYGIS | VIYADGMRTAYADDVK | GNNAGTFDQ | -0.23 / -0.47 / -0.37 / -0.65 / -0.39 / -0.01 | 1 of 18 (2.39) |
| 36 | GFDLNEYGIS | VIYADGMRTAYADSVK | GNNAGTFDQ | 0.36 / -0.53 / -0.39 / ND / -0.40 / 0.45 | 0 of 18 |
| 37 | GFDLDEYGIS | VIYADGMRTAYSDSVK | GTNAGTFDQ | -0.60 / -0.76 / -0.83 / -0.70 / -0.64 / -0.52 | 0 of 18 |
| 38 | GFDLEEYGIS | VIYADGKRTAYTDSVK | GNVAGTFDV | -0.25 / -0.37 / -0.39 / -0.81 / 0.47 / -0.49 | 0 of 18 |
| 39 | GFDLEEYGIS | VIYADGMRTAYSDSVK | GNVAGTFDI | -0.42 / -0.41 / -0.37 / -0.94 / -0.58 / -0.36 | 0 of 18 |

Top 7 of the variants detected in all replicates, tightest first:

| CDR-H1 | CDR-H2 | CDR-H3 | replicates, log10 nM | empty controls |
|---|---|---|---|---|
| GFDLNEYGIS | VIYADGSRTAYADSVK | GEVAGTFDI | -0.61 / -1.22 / -1.29 / -0.41 / -0.84 / -0.76 | 0 of 18 |
| GFDLNEYGIS | VIYADGQRTAYADSVK | GNVAGTFDF | -0.78 / -0.62 / -0.96 / -1.02 / -0.99 / -0.72 | 0 of 18 |
| GFDLNEYGIS | VIYADGQRTAYADSVK | GNVAGTFDA | -0.86 / -1.04 / -0.47 / -0.45 / -0.88 / -0.82 | 0 of 18 |
| GFDLNEYGIS | VIYADGMRKAYADSVK | GETAGTFDV | -0.42 / -0.65 / -0.82 / -0.97 / -0.83 / -0.50 | 0 of 18 |
| GFDLDEYGIS | VIYADGMRTVYADSVK | GNQAGTFDL | -0.49 / -0.63 / -0.66 / -0.72 / -0.88 / -0.70 | 0 of 18 |
| GFDLDEYGIS | VIYADGMRTAYSDSVK | GTNAGTFDQ | -0.60 / -0.76 / -0.83 / -0.70 / -0.64 / -0.52 | 0 of 18 |
| GFDLNEYGIS | VIYADGKRTFYADSVK | GNVAGTFDT | -0.20 / -0.80 / -0.88 / -0.76 / -0.61 / -0.61 | 0 of 18 |

Data: MIT Lincoln Laboratory AlphaSeq set, Li et al. 2023, doi:10.1038/s41467-023-39022-2, as distributed in FLAb.